The text below walks through data of ChEMBL document CHEMBL1765026, “Small molecule agonists of the orphan nuclear receptors steroidogenic factor-1 (SF-1, NR5A1) and liver receptor homologue-1 (LRH-1, NR5A2)” (J Med Chem, 2011).

Chains of the proteins cited; added tags and fusions are not shown.
UniProt Q13285, whole entry: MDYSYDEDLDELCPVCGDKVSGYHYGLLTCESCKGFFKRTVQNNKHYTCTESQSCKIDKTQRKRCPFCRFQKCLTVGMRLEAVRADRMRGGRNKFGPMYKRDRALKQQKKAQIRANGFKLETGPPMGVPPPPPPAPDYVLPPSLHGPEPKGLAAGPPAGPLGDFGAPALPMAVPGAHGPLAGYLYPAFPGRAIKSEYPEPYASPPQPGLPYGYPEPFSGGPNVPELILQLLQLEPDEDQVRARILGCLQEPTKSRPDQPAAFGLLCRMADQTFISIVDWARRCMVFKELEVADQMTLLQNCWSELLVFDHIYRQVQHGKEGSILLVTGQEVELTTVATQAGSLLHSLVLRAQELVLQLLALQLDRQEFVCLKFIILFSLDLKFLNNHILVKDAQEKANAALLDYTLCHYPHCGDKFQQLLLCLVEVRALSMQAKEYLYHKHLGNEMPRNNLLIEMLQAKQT

The target of this experiment is Steroidogenic factor 1 (Homo sapiens, UniProt Q13285). The experiment in a line: Agonist activity at human SF-1 assessed as DAX1 1-23 peptide recruitment by TR-FRET assay relative to control. For orientation: TR-FRET usually uses a lanthanide donor and a delayed reading to cut background.

A word on the EC50: it is the concentration at which the effect is half-maximal. `C=C(c1ccccc1)[C@@]12CC[C@@H](O)[C@@H]1CC(CCCCCC)=C2c1ccccc1` (racemic): the concentration giving a half-maximal response (EC50) is 31.6 nM.

As to `C=C(c1ccccc1)[C@@]12CC[C@H](O)[C@@H]1CC(CCCCCC)=C2c1ccccc1` (racemic), the EC50 is 63.1 nM.
